scFv variants of Ab-14 (light chain) against a SARS-CoV-2 spike peptide

Antigen: PDVDLGDISGINAS, a 14-residue peptide of the SARS-CoV-2 spike HR2 region.

The variants keep the heavy chain, the linker and the frameworks of Ab-14 (scFv order VH, three GGGGS repeats, VL).
VH: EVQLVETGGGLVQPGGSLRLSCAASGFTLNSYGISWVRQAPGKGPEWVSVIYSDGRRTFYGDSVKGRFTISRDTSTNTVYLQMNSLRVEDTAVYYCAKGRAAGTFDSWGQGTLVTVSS
VL: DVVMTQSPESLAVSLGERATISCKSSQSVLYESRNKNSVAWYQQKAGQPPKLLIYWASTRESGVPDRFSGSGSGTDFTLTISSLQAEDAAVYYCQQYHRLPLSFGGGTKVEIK

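The parent was found by panning a naive human phage display library on the peptide. Library AAYL50 holds single substitutions and randomly drawn double and triple substitutions in the CDRs. Affinity was read by AlphaSeq, a pooled yeast mating assay with surface-displayed partners. The frequency of each diploid, read from paired DNA barcodes, reflects how well the two displayed proteins bind. Read counts were normalised to the haploid input and turned into Kd by a linear fit to BCL2-family pairs of known affinity, for each replicate. There are three technical replicates.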

Sequences are complete VL domains. Values are log10 of the apparent Kd in nM; lower means stronger binding. An entry "ND" has no value in the source: the pair was not observed among the diploids in that replicate. This suggests poor binding but is not conclusive. In this assay the parent's reference entry averaged 0.65; its copy inside this library read 1.68. As a blank, each scFv also met three strains without target: over library AAYL50, 18% of these pairings were detected, typically at 4.19 and seldom below 2.99. For each scFv, signals with the empty controls are counted beside the result.

For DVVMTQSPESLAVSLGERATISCKSSDSVLYESRNKNSVAWYQQKAGQPPKLLIYWASTRESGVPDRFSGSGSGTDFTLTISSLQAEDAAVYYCQPYHRLPLSFGGGTKVEIK, the assay gave ND, ND, ND (controls 2 of 9).
For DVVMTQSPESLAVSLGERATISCKSSQSVLYESRNKNQVAWYQQKAGQPPKLLIYWISTRESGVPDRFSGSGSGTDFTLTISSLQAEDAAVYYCQQYHRLPLSFGGGTKVEIK, the assay gave ND, ND, ND (controls 2 of 9).
For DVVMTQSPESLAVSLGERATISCKSSQSVQYCSRWKNSVAWYQQKAGQPPKLLIYWASTRESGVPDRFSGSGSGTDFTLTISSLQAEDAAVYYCQQYHRLPLSFGGGTKVEIK, the assay gave 2.70, 2.61, 3.08 (controls 4 of 9).
For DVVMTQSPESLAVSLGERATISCKSGQSVLYRSRNKNSYAWYQQKAGQPPKLLIYWASTRESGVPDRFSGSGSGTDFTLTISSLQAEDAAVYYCQQYHRLPLSFGGGTKVEIK, the assay gave ND, ND, ND (controls 0 of 9).
For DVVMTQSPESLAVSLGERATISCKSSQQVLYEMRNKNSVAWYQQKAGQPPKLLIYHASTRESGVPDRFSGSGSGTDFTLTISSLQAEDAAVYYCQQYHRLPLSFGGGTKVEIK, the assay gave -0.02, 0.32, 0.16 (controls 4 of 9).
For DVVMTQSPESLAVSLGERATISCKSSQSVLYESRNKNSSWWYQQKAGQPPKLLIYWASTRESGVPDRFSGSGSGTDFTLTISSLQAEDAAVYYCVQYHRLPLSFGGGTKVEIK, the assay gave 4.74, 4.88, ND (controls 2 of 9).
For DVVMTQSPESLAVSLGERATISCKSSVIVLYESRNKNSLAWYQQKAGQPPKLLIYWASTRESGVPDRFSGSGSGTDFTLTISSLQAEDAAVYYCQQYHRLPLSFGGGTKVEIK, the assay gave 3.97, ND, ND (controls 0 of 9).
For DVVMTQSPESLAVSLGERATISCKSSQSVSYESRNKTSVAWYQQKAGQPPKLLIYWASTRESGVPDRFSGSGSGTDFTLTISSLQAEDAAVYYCQQYHMLPLSFGGGTKVEIK, the assay gave 1.23, 1.20, 1.39 (controls 1 of 9).
For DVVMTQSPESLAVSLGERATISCKSSMSVLYESRRPNSVAWYQQKAGQPPKLLIYWASTRESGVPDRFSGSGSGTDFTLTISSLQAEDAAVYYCQQYHRLPLSFGGGTKVEIK, the assay gave 1.39, 1.69, 2.10 (controls 0 of 9).
For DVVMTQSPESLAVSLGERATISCKSSQSVLYESRNKNIVAWYQQKAGQPPKLLIYWASTRESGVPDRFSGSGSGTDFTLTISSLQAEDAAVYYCQQYHCLPLYFGGGTKVEIK, the assay gave ND, ND, ND (controls 0 of 9).
For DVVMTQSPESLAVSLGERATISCKSSQSVLYFSTNKNSVAWYQQKAGQPPKLLIYRASTRESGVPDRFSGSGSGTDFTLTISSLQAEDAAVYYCQQYHRLPLSFGGGTKVEIK, the assay gave 1.32, 1.38, 2.01 (controls 0 of 9).
For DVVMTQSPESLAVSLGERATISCKSSQSVLYWSRNKNSVAWYQQKAGQPPKLLIYNASTRESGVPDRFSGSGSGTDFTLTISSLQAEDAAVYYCQQYHRLDLSFGGGTKVEIK, the assay gave 0.44, 0.76, 0.80 (controls 4 of 9).
For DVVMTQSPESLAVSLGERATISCKSSQSVLYESREKISVAWYQQKAGQPPKLLIYWASTRESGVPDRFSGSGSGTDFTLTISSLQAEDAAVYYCQQYHRLPLQFGGGTKVEIK, the assay gave ND, ND, ND (controls 0 of 9).
For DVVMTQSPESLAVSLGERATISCWSSQSVLYESANKNSVAWYQQKAGQPPKLLIYWASDRESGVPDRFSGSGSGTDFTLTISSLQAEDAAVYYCQQYHRLPLSFGGGTKVEIK, the assay gave 3.79, 3.47, 3.95 (controls 7 of 9).
For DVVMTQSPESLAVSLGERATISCKWSQSVLYESRNKNSVAWYQQKAGQPPKLLIYYASTRESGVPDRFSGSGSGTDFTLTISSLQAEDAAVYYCQQYHRLPLSFGGGTKVEIK, the assay gave 0.88, 0.83, 0.64 (controls 0 of 9).
For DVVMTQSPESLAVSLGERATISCKSSQSVLYESYNKNSVAWYQQKAGQPPKLLIYWADTRESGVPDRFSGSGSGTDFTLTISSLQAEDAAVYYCQQYHRLPYSFGGGTKVEIK, the assay gave ND, ND, ND (controls 1 of 9).
For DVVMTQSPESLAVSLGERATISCKSSQSVLYESRNKQSVAWYQQKAGQPPKLLIYWTSTRESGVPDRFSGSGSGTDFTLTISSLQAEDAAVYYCQQYHRLPLSFGGGTKVEIK, the assay gave 1.26, 1.56, 1.56 (controls 0 of 9).
For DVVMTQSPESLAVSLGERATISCKSSQSVLYQSRNKNSVAWYQQKAGQPPKLLIYQASTRESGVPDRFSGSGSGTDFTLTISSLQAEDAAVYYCQQYHRLPLSFGGGTKVEIK, the assay gave 0.29, 0.60, 0.37 (controls 4 of 9).
For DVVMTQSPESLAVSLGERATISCKSSQSVLYESRNKNSVAWYQQKAGQPPKLLIYWASYREPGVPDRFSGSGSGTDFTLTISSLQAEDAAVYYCQQYHYLPLSFGGGTKVEIK, the assay gave 1.33, 1.27, 1.36 (controls 2 of 9).
For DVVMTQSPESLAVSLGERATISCKSSQSVLYESRNKFSVAWYQQKAGQPPKLLIYWASLRESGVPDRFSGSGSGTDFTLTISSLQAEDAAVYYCQQYHRLPLGFGGGTKVEIK, the assay gave 4.29, ND, ND (controls 1 of 9).
For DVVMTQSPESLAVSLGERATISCKSSQSVLYESRNKNSVAWYQQKAGQPPKLLIYCMSTRESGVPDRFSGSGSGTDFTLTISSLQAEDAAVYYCQQQHRLPLSFGGGTKVEIK, the assay gave ND, ND, 4.66 (controls 3 of 9).

Repeated from above, the 2 best binders with a signal in all replicates:

Variant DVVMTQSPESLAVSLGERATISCKSSQQVLYEMRNKNSVAWYQQKAGQPPKLLIYHASTRESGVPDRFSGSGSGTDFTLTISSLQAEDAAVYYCQQYHRLPLSFGGGTKVEIK gave -0.02, 0.32, 0.16 (controls 4 of 9).
Variant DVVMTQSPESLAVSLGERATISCKSSQSVLYQSRNKNSVAWYQQKAGQPPKLLIYQASTRESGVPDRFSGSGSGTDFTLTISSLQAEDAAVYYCQQYHRLPLSFGGGTKVEIK gave 0.29, 0.60, 0.37 (controls 4 of 9).

From the AlphaSeq antibody data of Engelhart et al. 2022 (doi:10.1038/s41597-022-01779-4), copy in the FLAb collection.